Measured values: ChEMBL document CHEMBL3739411, “Cytotoxic Illudane Sesquiterpenes from the Fungus Granulobasidium vellereum (Ellis and Cragin) Jülich” (J Nat Prod, 2015)

Columns and labels:
Huh-7 = experiment: Cytotoxicity against human HuH7 cells assessed as viable cells after 6 days by XTT assay; assay type: functional
How it was run: (§1)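 Cells seeded at 2 × 10⁴ cells/well in 96-well plates; test substances added next day in duplicate. CC50 is the concentration giving 50% viability relative to untreated control cells. Positive control included.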

MT4 = experiment: Cytotoxicity against human MT4 cells assessed as viable cells after 6 days by XTT assay; assay type: functional; how it was run: as §1

CC1=C2C(=CC(C)(C)[C@H]2O)[C@H](O)[C@@](C)(O)C12CC2
CC50 (Huh-7): 160 µM
CC50 (MT4): 45 µM
